The values that follow come from published antibiotic growth screens (doi:10.1038/s41589-023-01349-8).

Each structure is given as a SMILES string. This is one part of the list.

The experiment concerns A. baumannii ATCC 17978. As to the kind of experiment: relative growth (fraction of control); higher = less inhibition. The following applies: 50 µM.
`O=C(C[C@@H]1CC[C@@H]2[C@H](COC[C@H](O)CN2Cc2ccccc2F)O1)N[C@@H]1CCN(Cc2ccccc2)C1`: the relative growth is 0.957.
For the molecule `CCCCCCCC(=O)OCC(COC(=O)CCCCCCC)OC(=O)CCCCCCC`, the relative growth was 1.29.
`O=S(=O)(NCC[C@@H]1CC[C@@H](NS(=O)(=O)c2ccccc2Cl)[C@@H](CO)O1)c1ccc(F)cc1` displayed a relative growth of 1.24.
With `Clc1ccc(COC(Cn2ccnc2)c2ccc(Cl)cc2Cl)cc1.O=[N+]([O-])O` (stereo not drawn) the figure was 0.952; with `O=C(NNC(=O)C1CCNCC1)c1cccnc1`, 0.992; with `Cn1c(=O)c2c(ncn2CC2OCCO2)n(C)c1=O`, 0.891.
`CCCNC(=O)N1C[C@H](O)COC[C@@H]2O[C@@H](CC(=O)NCCCN3CCOCC3)CC[C@H]21`: the relative growth amounted to 0.959.
Then `CCC(=O)Nc1ccc2c(c1)C(=O)N(C)C[C@@H](OC)[C@@H](C)CN(C(=O)CN1CCOCC1)[C@@H](C)CO2`, with 1.02; and `C=CCN1C(=O)[C@]2(O[C@H](CCn3cc([C@H](O)c4ccccc4)nn3)[C@@H]([Si](C)(C)c3ccc(OC)cc3)[C@@H]2C)c2cc(N3C(=O)c4cccc5cccc3c45)ccc21`, with 1.15.
For `COc1ccc([C@H]([C@@H](O)Cc2ccccc2)N(C[C@H](/C=C/c2ccccc2)NC(=O)C(Cl)(Cl)Cl)[C@@H](Cc2ccccc2)C(OC)OC)cc1`, the relative growth is 1.25.
Then `COC(=O)C[C@@H]1CC[C@@H]2[C@H](COC[C@@H](O)CN2S(=O)(=O)c2ccccc2C)O1`, with 1.03; and `O=C(O)CCCCC1SCC2NC(=O)NC21` (stereo not drawn), with 1.03.
Then `CC[C@@H](N)CC12CC3CC(CC(C3)C1)C2`, with 0.901.
Then `CN(C)c1cc(NC(=O)CNC(C)(C)C)c(O)c2c1C[C@H]1C[C@H]3[C@H](N(C)C)C(O)=C(C(N)=O)C(=O)[C@@]3(O)C(O)=C1C2=O`, with 0.996.
`Nn1c(Cn2ccnc2)nnc1Cn1ccnc1`: the relative growth came out at 1.1.
With `COc1cccc(NC(=O)N2C[C@@H](O)COC[C@@H]3O[C@@H](CC(=O)NCc4ccccc4F)CC[C@H]32)c1` the figure was 0.929; with `COc1cc(NS(=O)(=O)c2ccc(N)cc2)nc(OC)n1`, 1.04; with `C=CCOC(=O)[C@@H]1[C@H]2C(=O)O[C@H](c3ccccc3)[C@H](c3ccccc3)N2[C@H](c2ccc(OCCOC(=O)NCCCCCC(=O)NO)cc2)[C@]12C(=O)Nc1ccccc12`, 0.942.
For `CC(=O)Oc1ccccc1C(=O)Nc1ccccc1`, the relative growth came out at 0.979.
Turning to `CO[C@@H]1CN(C)C(=O)c2ccc(NS(=O)(=O)CC(F)(F)F)cc2OC[C@H](C)N(Cc2cccnc2)C[C@H]1C`, the relative growth came to 1.24.
`O=C(CCCCCC(=O)N/N=C/[C@H](O)[C@@H](O)[C@@H](O)[C@H](O)C(=O)O)NO`: the relative growth worked out at 1.02.
For the molecule `Cc1nc(=O)c(/C=N/O)c(O)[nH]1`, the relative growth stood at 0.98.
`CC(=O)O[C@H]1C[C@@]2(C)[C@@H](C[C@@H](O)C3[C@]2(C)CC[C@H]2[C@H](C)[C@H](O)CC[C@]32C)/C1=C(/CCC=C(C)C)C(=O)O` (stereo partly drawn) returned a relative growth of 0.535.
`Cc1cccc(Nc2ccncc2S(=O)(=O)NC(=O)NC(C)C)c1` had a relative growth of 1.09.
For the molecule `CCCNC(=O)C[C@@H]1CC[C@H]2[C@@H](COc3ccc(NS(=O)(=O)c4ccccc4C)cc3C(=O)N2C)O1`, the relative growth amounted to 0.982.
`CO[C@@H](CN(C)S(=O)(=O)c1ccc(Cl)cc1)[C@@H](C)CN([C@H](C)CO)S(=O)(=O)c1cccc(Cl)c1` yielded a relative growth of 0.805.
The molecule `C[C@H]1[C@H]([Si](C)(C)F)[C@@H](CCn2cc([C@H](O)c3ccccc3)nn2)O[C@]12C(=O)N(c1ccccc1)c1ccccc12` yielded a relative growth of 0.907.
With `C[C@@H]1CN([C@@H](C)CO)S(=O)(=O)c2ccc(-c3ccc(C(=O)N(C)C)cc3)cc2O[C@H]1CN(C)C(=O)C1CCOCC1`, the relative growth was found to be 0.985.
With `CC(=O)O[C@@H]1CC[C@@]2(C)C(C[C@@H](OC(C)=O)[C@@]3(C)C4=CC(=O)O[C@@H](c5ccoc5)[C@]4(C)CCC23)C1(C)C` (stereo partly drawn) [3alpha-ACETOXYDIHYDRODEOXYGEDUNIN] the figure was 0.956; with `C[C@H](CO)N1C[C@H](C)[C@H](CN(C)C(=O)C2CCOCC2)Oc2ncc(C#CC3(O)CCCC3)cc2C1=O`, 0.905.
The molecule `COc1cc2c(cc1OC)C(=O)NCC2` came in with a relative growth of 1.01.
As for `C[C@H]1CN([C@@H](C)CO)S(=O)(=O)c2ccc(-c3cncnc3)cc2O[C@@H]1CN(C)C(=O)Cc1ccncc1`, the relative growth was 1.12.
As to `C=C(C)[C@H]1COc2cc3oc(=O)ccc3cc2O1`, the relative growth amounted to 0.988.
`NCc1ccc(-c2ccccc2O)cc1`: the relative growth was 0.922.
Take `NCCCCCc1nc2ccccc2[nH]1`: the relative growth is 0.866.
Then `CO[C@@H]1CN(C)C(=O)c2cc(NS(=O)(=O)CC(F)(F)F)ccc2OC[C@H](C)N(Cc2ccccn2)C[C@H]1C`, with 1.11; and `COc1ccccc1S(=O)(=O)N[C@@H]1CC[C@H](CCNC(=O)C2CC2)O[C@H]1CO`, with 0.969.
In the case of `O=C(CCCCCC(=O)N/N=C/[C@H](O)[C@H](O)[C@@H](O)[C@@H](O)CO)NO`, the relative growth worked out at 0.895.
For `NNC(=O)COc1ccccc1`, the relative growth was found to be 0.829.
Regarding `CN1CCN(C(=O)C[C@@H]2C=C[C@@H](NC(=O)c3ccc4c(c3)OCO4)[C@H](CO)O2)CC1`, the relative growth worked out at 1.02.
With `CO[C@H]1O[C@H](CO)[C@@H](OC(=O)Nc2ccc(Oc3ccccc3)cc2)[C@H](OC(=O)Nc2ccccc2-c2ccccc2)[C@@H]1OC(=O)Nc1ccccc1-c1ccccc1`, the relative growth came to 1.11.
`O=C(O)CSCC(=O)N[C@H]1CCSC1=O` returned a relative growth of 0.836.
`O=C(CN1CCOCC1)NCC[C@H]1CC[C@@H](NC(=O)Nc2ccccc2)[C@H](CO)O1` came in with a relative growth of 0.897.
Molecule `NS(=O)(=O)c1ccc(CCn2ccn(CC(=O)NCCC3=CCCCC3)c(=O)c2=O)cc1` gave a relative growth of 1.18.
As for `CC(C)NCC(O)c1ccc(O)c(O)c1.Cl` (stereo not drawn), the relative growth turned out to be 0.934.
For `O=C(CN1CCOCC1)N[C@H]1CC[C@H](CCNS(=O)(=O)c2ccccc2F)O[C@@H]1CO`, the relative growth worked out at 1.01.
`CNC(=O)Cn1c(=O)c2c(OC)c(C)cnc2n(C)c1=O` yielded a relative growth of 1.17.
As for `C[C@H]1CN([C@@H](C)CO)C(=O)c2cc(-c3cncnc3)cnc2O[C@@H]1CN(C)C(=O)CN1CCOCC1`, the relative growth stood at 0.952.
Regarding `CN1CCN(C(=O)C[C@@H]2CC[C@H]3[C@@H](COC[C@@H](O)CN3C(=O)C3CCCC3)O2)CC1`, the relative growth turned out to be 0.962.
Consider `CCOC(=O)C[n+]1ccccc1C`, for which the relative growth stood at 0.857.
The molecule `NC(=O)N1c2ccccc2CC(=O)c2ccccc21` displayed a relative growth of 0.938.
Consider `COCC#Cc1ccc2c(c1)O[C@@H](CN(C)Cc1ccc(F)cc1)[C@@H](C)CN([C@@H](C)CO)S2(=O)=O`, for which the relative growth came out at 0.922.
With `O=C(NO)c1ccc(C(=O)N/N=C/[C@H](O)[C@@H](O)[C@@H](O)[C@H](O)C(=O)O)cc1` the figure was 0.943.
Molecule `C[C@H]1CN([C@@H](C)CO)S(=O)(=O)c2ccc(C#CC3(O)CCCC3)cc2O[C@@H]1CN(C)C(=O)Cc1ccncc1` displayed a relative growth of 0.881.
In the case of `CN(C)CC(=O)N[C@H]1CC[C@H](CCNC(=O)C2CCC2)O[C@@H]1CO`, the relative growth was determined as 1.06.
In turn, `O=C(C[C@@H]1C=C[C@H](NC(=O)Cc2ccccn2)[C@@H](CO)O1)NCCCN1CCOCC1` had a relative growth of 0.971.
Take `C=C[C@](C)(O)CC[C@@H]1[C@@]2(C)CCCC(C)(C)[C@@H]2CC[C@]1(C)O`: the relative growth was found to be 1.21.
`C/C(=N\N)c1c(C)cc(C)[nH]c1=O` showed a relative growth of 0.94.
For `COc1ccc(C(=O)NC(CO)(CO)CO)cc1OC`, the relative growth came to 1.04.
As to `CN1C(=O)C[C@H](Nc2ccc(N(C)C)cc2)C1=O`, the relative growth turned out to be 0.856.
`CC(=O)N[C@H]1CC[C@H](CCNC(=O)C2CC2)O[C@@H]1CO` yielded a relative growth of 1.06.
Regarding `CN1C(=S)N[C@@H]2CS(=O)(=O)C[C@@H]21`, the relative growth is 0.915.
For the molecule `O=C(C[C@H]1C=C[C@H](NC(=O)CN2CCOCC2)[C@H](CO)O1)NCCc1ccccc1`, the relative growth is 0.949.
`CC(=O)OCC(=O)[C@@]12N=C(C)O[C@@H]1CC1C3CCC4=CC(=O)C=C[C@]4(C)C3[C@@H](O)C[C@@]12C` (stereo partly drawn) came in with a relative growth of 0.931.
Then `C[C@H](CO)N1C[C@H](C)[C@@H](CN(C)S(=O)(=O)c2ccccc2F)Oc2ncc(C#Cc3ccccc3F)cc2C1=O`, with 1.05.
In turn, `Cc1ccc2nc(SCc3c(C)c(C)cc(C)c3C)[nH]c2c1` showed a relative growth of 1.12.
`Cc1cc(NC2CCCCC2)ncn1` came in with a relative growth of 0.978.
For the molecule `CC(NCCC(c1ccccc1)c1ccccc1)c1ccccc1.Cl` (stereo not drawn), the relative growth turned out to be 0.882.
For the molecule `CO[C@@H]1CN(C)C(=O)c2ccc(NS(C)(=O)=O)cc2OC[C@@H](C)N(C(=O)CN(C)C)C[C@@H]1C`, the relative growth was determined as 1.06.
`CCOC(=O)C1=C(C)NC(=O)N[C@@H]1C` displayed a relative growth of 1.1.
Molecule `CC1(C)S[C@H]2[C@@H](NC(=O)[C@@H](N)c3ccccc3)C(=O)N2[C@@H]1C(=O)O` came in with a relative growth of 1.06.
In turn, `O=C(NCc1ccncc1)C(=O)NC[C@H]1OCCN1S(=O)(=O)c1ccc(F)cc1` gave a relative growth of 0.911.
Regarding `COc1ccc(S(=O)(=O)N[C@@H]2C=C[C@H](CC(=O)N3CCN(c4ccccc4)CC3)O[C@@H]2CO)cc1`, the relative growth is 0.98.
As for `O=C(N[C@@H]1CC=CC[C@H](CC(=O)N(CCO)Cc2ccccc2)C(=O)NCC(c2ccccc2)OC1=O)OCC1c2ccccc2-c2ccccc21` (stereo partly drawn), the relative growth is 0.923.
`CC(C)(C)C(=O)Nc1ccccc1F` showed a relative growth of 0.94.
`COc1cccc(C#Cc2ccc3c(c2)O[C@@H](CN(C)S(=O)(=O)c2ccccc2F)[C@H](C)CN([C@H](C)CO)S3(=O)=O)c1` returned a relative growth of 1.26.
As for `c1ccc(-c2cccs2)cc1`, the relative growth stood at 0.96.
`Cn1cnc(CCNC(=O)C[C@H]2CC[C@@H]3[C@H](COC[C@H](O)CN3C(=O)Nc3ccc(C(F)(F)F)cc3)O2)c1` came in with a relative growth of 1.03.
`Nc1nonc1N1CCCCC1` showed a relative growth of 0.899.
Molecule `COCC(=O)Nc1ccc2c(c1)C(=O)N(C)C[C@H](OC)[C@@H](C)CN(Cc1cccc(F)c1)[C@H](C)CO2` gave a relative growth of 0.973.
Regarding `COc1ccc2nc(S(=O)Cc3ncc(C)c(OC)c3C)[nH]c2c1` (stereo not drawn), the relative growth worked out at 1.01.
Then `O=C(C[C@H]1CC[C@H]2[C@@H](COC[C@H](O)CN2S(=O)(=O)c2cccc(Cl)c2)O1)N1CCOCC1`, with 1.01; and `CO[C@@H]1CN(C)C(=O)c2cc(NC(=O)c3ccccc3)ccc2OC[C@@H](C)N(C(=O)CN(C)C)C[C@@H]1C`, with 1.15.
